Source: patent US8802686B2, “Sulfone-substituted anilinopyrimidine derivatives as CDK inhibitors, the production thereof, and use as a medicine” (Bayer Intellectual Property GmbH, priority 2008, dated 2014)

Chains of the proteins cited; added tags and fusions are not shown.
UniProt P06493, whole entry: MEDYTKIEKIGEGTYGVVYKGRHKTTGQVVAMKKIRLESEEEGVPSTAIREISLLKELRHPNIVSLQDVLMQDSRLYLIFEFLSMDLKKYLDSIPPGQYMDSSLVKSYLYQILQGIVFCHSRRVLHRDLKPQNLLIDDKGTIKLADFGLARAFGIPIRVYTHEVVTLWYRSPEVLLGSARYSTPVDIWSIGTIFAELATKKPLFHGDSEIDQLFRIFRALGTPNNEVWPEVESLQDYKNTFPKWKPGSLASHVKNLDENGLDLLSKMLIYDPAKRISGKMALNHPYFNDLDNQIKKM

Experiments:
[1] = biological target: CDK2/CycE (Homo sapiens (Human), UniProt P24941); assay: CDK2/CycE kinase assay (Assay 2); assay type: biochemical; details: read-out: CDK2/CycE (Assay 2) Concentration of the half-maximal inhibition of the enzyme activity, IC50
Description: (§1) Recombinant CDK2 and CycE-GST fusion proteins, purified from baculovirus-infected insect cells (Sf9), were purchased from ProQinase GmbH, Freiburg. Histone IIIS, which was used as kinase substrate, was purchased from Sigma. […] The reaction was stopped by adding EDTA solution (250 mM; pH 8.0; 15 μl/measuring point). From each reaction mixture, 15 μl were applied to P30 filter strips (Wallac), and unincorporated ^33P-ATP was removed by washing the filter strips three times, for 10 min in each case, in 0.5% phosphoric acid. After drying the filter strips for 1 hour at 70° C., the filter strips were covered with scintillator strips (MeltiLex™ A, Wallac) and stoved for 1 hour at 90° C. The amount of incorporated ^33P (substrate phosphorylation) was determined by scintillation measurement in a gamma-radiation measuring instrument (Wallac).

[2] = biological target: CDK1/CycB (Homo sapiens (Human), UniProt P06493); assay: CDK1/CycB kinase assay (Assay 1); assay type: biochemical; details: read-out: CDK1/CycB (Assay 1) Concentration of the half-maximal inhibition of the enzyme activity, IC50
Description: as §1, with “CDK1” for “CDK2”, “CycB-GST” for “CycE-GST”, “The histone IIIS” for “Histone IIIS, which was”, “substrate is commercially available” for “substrate, was purchased”, “70°,” for “70° C.,”

`C[C@@H](O)[C@@H](C)Oc1nc(Nc2ccc(S(C)(=O)=O)cc2)ncc1C(F)(F)F` [Example 2, (2R,3R)-3-[2-(4-Methanesulphonylphenylamino)-5-trifluoromethylpyrimidin-4-yloxy]butan-2-ol] was tested, and the IC50 [1] was 8 nM and the IC50 [2] was 9 nM.
